Chains of the proteins cited; added tags and fusions are not shown. Residues count along the entry.
UniProt P42260, 32-908: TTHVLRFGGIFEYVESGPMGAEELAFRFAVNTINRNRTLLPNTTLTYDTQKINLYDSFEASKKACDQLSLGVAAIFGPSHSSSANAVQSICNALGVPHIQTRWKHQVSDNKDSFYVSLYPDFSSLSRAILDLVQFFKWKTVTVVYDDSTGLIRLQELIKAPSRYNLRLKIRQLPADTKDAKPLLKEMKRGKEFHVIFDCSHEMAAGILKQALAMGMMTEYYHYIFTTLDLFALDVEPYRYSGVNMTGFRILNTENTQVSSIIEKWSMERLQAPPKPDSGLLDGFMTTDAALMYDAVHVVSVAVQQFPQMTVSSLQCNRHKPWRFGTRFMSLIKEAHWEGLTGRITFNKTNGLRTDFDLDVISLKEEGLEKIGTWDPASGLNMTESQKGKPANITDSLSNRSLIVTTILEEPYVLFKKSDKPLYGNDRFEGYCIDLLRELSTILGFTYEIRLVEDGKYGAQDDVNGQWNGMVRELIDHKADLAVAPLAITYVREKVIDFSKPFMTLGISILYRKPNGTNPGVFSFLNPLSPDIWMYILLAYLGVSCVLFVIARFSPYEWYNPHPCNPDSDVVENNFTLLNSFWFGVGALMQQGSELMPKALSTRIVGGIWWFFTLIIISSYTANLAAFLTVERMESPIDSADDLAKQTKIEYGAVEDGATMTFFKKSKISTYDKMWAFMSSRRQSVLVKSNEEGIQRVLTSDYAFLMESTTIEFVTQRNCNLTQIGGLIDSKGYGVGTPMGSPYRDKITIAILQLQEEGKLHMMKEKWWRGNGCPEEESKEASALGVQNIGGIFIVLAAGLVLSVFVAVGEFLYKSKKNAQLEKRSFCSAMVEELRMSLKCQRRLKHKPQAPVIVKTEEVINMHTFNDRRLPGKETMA

According to US20020115721A1, “Esters of alkycarboxy amino acids as prodrugs of modulators of the kainate receptor” (Annovis, Inc., priority 2000, published 2002):

How the values were obtained:
[1] = target: Rat GluR6 kainate receptors (Rattus norvegicus, UniProt P42260)
Text: Tissue slice or whole cell electrophysiology as described by Yamada (Neurophysiology, 1994 and references therein) is used to measure agonist, partial agonist, or antagonist properties of drugs for glutamate receptors. […] This is distinct from the binding affinity.
Rat GluR6 kainate receptors were expressed in HEK 293 cells in culture and evaluated by the patch clamp technique.

Sprague-Dawley rats = assay: Rat allodynia/hyperalgesia pain model after capsaicin; assay type: in vivo; details: summary
Procedure: This test is to determine the extent of protection by a test compound to neuropathic pain sensations. With the rat standing on an elevated perforated floor, mechano-allodynia is measured by applying from beneath a graded series of von Frey hairs to the mid-plantar region of the effected paws. The hair that evokes at least one withdrawal response is designated the threshold level when compared to the sham treated nerve. Alternatively, the paw can be illuminated with a noxious radiant heat and the time to paw withdrawal is measured.
The model is described by Bennett, Neuro. Report 5, 1438-1440 (1994), and references cited therein. […]
A total of 40 adult male Sprague-Dawley rats, 250-300 g, were used. Baseline measures of withdrawal responses evoked by heat and mechanical stimuli were determined for each hind paw and obtained for at least 4 consecutive days until withdrawal and latency responses were stable. […] Each group was randomly assigned to 1 of 4 treatment conditions: vehicle, 10, 50, or 100 mg/kg compound i.p. On test day, withdrawal responses to heat and mechanical stimuli were measured before intraperitoneal injection of the treatment condition. […] Withdrawal responses to heat and mechanical stimuli were again measured 5 and 30 minutes post capsaicin. […]

SMILES: C[C@H](C[C@H](N)C(=O)O)C(=O)O [Compound 1, (2S,4R)-4-Methyl glutamic acid]
- block of current evoked by 300 mM kainate ([1]; 10 nM to 20 μM, rat GluR6 expressed in HEK 293 cells, patch clamp): completely and reversibly blocked
- modulation of kainate receptor ([1]; whole cell electrophysiology): modulates
- dose at which activity was shown (Sprague-Dawley rats; i.p.): 50 mg/kg
- duration of activity (Sprague-Dawley rats; parent compound): up to 30 minutes
